# Measured values reported in patent US8399026B2, “Peptides isolated from spider venom, and uses thereof” (priority 2009, dated 2013).
# The chains behind the UniProt entries cited, without tags or fusion partners. Where a name states a change or a piece, a line headed by the entry shows the natural chain unless it says otherwise.
# UniProt P08104, whole entry: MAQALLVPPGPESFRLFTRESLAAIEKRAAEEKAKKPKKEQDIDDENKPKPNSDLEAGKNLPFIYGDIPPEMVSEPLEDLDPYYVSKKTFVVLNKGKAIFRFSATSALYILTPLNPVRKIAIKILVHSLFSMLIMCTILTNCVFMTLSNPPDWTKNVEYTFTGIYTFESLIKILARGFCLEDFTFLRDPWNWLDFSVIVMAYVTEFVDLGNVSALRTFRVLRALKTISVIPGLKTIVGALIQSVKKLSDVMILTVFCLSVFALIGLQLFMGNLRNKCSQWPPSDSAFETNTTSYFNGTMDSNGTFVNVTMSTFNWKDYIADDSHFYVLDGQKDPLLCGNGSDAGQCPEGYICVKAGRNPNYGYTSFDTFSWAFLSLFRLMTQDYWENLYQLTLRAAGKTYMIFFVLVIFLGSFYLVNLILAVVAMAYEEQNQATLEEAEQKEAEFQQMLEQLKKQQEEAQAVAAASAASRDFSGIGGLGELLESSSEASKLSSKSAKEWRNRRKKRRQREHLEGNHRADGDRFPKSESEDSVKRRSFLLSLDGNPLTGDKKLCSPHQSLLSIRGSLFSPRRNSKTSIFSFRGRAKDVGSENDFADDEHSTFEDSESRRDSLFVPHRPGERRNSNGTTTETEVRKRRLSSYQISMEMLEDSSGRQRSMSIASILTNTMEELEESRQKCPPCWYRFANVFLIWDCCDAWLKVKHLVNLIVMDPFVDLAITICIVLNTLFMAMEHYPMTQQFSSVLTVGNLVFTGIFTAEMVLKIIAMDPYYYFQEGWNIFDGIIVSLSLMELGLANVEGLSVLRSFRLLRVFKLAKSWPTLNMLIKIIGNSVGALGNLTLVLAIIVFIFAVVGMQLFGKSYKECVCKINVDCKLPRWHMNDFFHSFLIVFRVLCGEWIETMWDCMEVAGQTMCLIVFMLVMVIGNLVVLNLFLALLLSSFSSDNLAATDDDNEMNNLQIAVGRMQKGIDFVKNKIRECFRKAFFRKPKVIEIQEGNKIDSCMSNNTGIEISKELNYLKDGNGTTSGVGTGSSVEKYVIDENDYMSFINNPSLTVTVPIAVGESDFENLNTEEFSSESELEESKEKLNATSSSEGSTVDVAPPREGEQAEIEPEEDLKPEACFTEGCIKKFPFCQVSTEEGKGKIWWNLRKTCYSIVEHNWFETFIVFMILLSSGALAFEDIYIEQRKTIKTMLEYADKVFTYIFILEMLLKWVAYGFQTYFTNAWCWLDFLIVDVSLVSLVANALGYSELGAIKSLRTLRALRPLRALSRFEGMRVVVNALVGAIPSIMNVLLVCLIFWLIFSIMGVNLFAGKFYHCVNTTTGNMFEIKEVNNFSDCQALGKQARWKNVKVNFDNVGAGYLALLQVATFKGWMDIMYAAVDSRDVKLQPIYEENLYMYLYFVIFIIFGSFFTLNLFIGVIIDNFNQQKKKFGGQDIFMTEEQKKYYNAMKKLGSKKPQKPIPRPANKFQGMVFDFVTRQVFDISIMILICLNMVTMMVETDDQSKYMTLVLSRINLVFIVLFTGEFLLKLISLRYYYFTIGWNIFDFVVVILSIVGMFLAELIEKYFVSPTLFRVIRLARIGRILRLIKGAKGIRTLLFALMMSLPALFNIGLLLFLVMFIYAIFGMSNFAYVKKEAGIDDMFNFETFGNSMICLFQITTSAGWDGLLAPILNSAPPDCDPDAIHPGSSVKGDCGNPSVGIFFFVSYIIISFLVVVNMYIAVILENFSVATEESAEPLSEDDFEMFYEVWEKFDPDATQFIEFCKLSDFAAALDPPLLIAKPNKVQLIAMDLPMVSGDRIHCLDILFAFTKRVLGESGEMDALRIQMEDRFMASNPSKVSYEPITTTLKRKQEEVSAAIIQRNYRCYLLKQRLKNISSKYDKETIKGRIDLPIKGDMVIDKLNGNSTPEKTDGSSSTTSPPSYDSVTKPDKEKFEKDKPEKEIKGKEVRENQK
# UniProt Q62968, whole entry: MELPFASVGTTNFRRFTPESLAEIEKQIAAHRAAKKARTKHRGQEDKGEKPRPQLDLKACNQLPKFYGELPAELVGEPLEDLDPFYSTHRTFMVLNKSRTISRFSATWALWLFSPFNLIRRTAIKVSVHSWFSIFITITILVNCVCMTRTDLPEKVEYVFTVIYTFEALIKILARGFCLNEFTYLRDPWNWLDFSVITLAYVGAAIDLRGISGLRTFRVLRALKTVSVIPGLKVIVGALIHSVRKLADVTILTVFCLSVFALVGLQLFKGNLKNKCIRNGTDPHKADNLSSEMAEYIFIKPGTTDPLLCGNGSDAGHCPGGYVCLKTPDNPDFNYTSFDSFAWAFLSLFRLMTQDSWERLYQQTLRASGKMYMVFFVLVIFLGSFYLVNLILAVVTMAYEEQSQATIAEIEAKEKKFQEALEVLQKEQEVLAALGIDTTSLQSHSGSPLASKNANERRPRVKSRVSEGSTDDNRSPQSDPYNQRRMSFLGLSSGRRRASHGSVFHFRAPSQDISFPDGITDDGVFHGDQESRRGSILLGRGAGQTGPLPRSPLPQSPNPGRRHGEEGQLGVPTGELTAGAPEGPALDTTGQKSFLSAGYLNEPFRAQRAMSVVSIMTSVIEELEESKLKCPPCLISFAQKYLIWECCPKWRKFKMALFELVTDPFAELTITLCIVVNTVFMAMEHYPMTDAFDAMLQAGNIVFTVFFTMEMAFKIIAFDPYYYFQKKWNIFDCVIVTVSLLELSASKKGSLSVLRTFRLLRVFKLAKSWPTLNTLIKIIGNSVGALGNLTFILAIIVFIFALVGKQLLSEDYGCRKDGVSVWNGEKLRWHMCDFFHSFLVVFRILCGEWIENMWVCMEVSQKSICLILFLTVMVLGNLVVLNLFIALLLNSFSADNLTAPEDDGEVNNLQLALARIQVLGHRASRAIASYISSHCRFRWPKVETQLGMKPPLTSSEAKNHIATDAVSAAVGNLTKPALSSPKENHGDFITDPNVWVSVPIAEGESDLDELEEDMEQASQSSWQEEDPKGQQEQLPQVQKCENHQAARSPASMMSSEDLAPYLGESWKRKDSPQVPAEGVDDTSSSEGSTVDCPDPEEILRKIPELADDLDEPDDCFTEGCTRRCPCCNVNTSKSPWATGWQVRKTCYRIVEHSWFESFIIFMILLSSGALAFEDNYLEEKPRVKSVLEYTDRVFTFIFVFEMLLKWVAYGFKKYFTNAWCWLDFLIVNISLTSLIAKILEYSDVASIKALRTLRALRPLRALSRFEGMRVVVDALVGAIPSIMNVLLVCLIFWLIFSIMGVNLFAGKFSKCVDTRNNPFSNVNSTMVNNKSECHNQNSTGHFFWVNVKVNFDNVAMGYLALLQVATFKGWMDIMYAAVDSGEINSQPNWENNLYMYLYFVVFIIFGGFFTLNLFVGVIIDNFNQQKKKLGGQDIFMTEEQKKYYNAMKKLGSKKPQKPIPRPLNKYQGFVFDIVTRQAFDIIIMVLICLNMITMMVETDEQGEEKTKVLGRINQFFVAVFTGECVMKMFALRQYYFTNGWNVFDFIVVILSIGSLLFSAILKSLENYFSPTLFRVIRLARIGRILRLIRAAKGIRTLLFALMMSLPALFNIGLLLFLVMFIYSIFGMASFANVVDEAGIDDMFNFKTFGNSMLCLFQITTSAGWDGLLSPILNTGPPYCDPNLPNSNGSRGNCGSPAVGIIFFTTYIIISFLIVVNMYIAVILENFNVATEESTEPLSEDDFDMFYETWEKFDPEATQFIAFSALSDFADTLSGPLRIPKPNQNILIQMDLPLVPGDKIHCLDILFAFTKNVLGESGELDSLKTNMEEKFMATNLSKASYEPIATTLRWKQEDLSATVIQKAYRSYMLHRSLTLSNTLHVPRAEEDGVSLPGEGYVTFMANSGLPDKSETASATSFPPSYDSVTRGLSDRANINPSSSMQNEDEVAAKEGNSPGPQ
# UniProt Q12809: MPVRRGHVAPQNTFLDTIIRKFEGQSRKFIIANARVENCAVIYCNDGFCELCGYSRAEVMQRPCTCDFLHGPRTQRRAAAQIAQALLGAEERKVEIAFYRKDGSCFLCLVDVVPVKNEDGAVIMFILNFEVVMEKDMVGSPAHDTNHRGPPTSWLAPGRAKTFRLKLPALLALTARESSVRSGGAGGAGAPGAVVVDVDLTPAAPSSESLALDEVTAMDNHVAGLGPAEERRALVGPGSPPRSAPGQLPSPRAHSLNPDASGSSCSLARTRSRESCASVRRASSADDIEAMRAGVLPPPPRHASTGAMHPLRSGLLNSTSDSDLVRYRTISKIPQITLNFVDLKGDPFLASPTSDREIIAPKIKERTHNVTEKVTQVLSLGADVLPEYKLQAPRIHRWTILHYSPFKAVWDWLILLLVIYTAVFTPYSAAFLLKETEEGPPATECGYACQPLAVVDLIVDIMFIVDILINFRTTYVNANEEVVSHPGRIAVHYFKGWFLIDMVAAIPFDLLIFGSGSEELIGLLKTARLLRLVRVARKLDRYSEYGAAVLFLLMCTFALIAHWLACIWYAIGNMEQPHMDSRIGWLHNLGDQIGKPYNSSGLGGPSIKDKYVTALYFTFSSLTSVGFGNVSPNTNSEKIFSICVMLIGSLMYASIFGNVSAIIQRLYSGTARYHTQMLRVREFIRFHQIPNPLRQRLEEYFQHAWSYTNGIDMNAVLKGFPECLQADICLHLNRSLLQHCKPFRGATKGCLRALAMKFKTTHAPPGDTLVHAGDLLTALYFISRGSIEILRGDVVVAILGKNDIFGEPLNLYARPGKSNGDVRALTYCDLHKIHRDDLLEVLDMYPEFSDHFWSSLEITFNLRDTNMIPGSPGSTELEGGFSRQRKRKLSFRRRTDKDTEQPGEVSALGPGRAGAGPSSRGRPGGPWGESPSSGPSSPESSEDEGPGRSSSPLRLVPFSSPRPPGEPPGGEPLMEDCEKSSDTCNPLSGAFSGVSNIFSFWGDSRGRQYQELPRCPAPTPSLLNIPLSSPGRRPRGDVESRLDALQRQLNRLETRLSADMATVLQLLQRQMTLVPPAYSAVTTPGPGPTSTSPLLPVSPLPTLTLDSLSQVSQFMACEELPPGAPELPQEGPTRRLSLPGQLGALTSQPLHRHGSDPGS
# Experiments:
# rNaV1.3 channels = biological target: T1, rNaV1.3 channels (Rattus norvegicus, UniProt P08104); test: cell-based
# T1 construct: expressed in transfected cells; host or cells: HEK-293
# rNaV1.8 channels = biological target: T2, rNaV1.8 channels (Rattus norvegicus, UniProt Q62968); test: Blocking of NaV1.8 channel currents, patch clamp, voltage ramp, ND7-23 cells; format: cell-based; conditions: text of Example 3; read-out: apparent IC50, NaV1.8 channels
# T2 construct: expressed in transfected cells; host or cells: ND7-23
# rat DRG neurons = format: cell-based
# hKV11.1 (hERG) channels = hKV11.1 (hERG) channels (Homo sapiens, UniProt Q12809)
# [1] = test system: mouse embryonic stem cells derived cardiomyocytes (mES-CM)
smiles,measurement,setting,value
CSCC[C@@H]1NC(=O)CNC(=O)[C@H](CC(C)C)NC(=O)[C@@H](NC(=O)[C@H](CC(=O)O)NC(=O)[C@@H](N)CC(=O)O)CSSC[C@@H]2NC(=O)[C@@H]3CSSC[C@@H](C(=O)N[C@@H](CCCCN)C(=O)N[C@@H](Cc4ccc(O)cc4)C(=O)N[C@H](C(=O)N[C@@H](CC(C)C)C(N)=O)C(C)C)NC(=O)[C@H](Cc4c[nH]c5ccccc45)NC(=O)[C@H](CCCCN)NC(=O)[C@H](CC(=O)O)NC(=O)[C@H](CCCCN)NC(=O)[C@H](CCCNC(=N)N)NC(=O)[C@H](CC(N)=O)NC(=O)[C@H](CSSC[C@H](NC(=O)[C@H](CO)NC(=O)[C@H](CO)NC(=O)[C@H](Cc4ccccc4)NC1=O)C(=O)N[C@@H](CC(=O)O)C(=O)N1CCC[C@H]1C(=O)N[C@@H](CC(=O)O)C(=O)N[C@@H](CC(N)=O)C(=O)N[C@@H](CC(=O)O)C(=O)N[C@@H](CCCCN)C(=O)N3)NC(=O)[C@H](CCCCN)NC(=O)[C@H](CCCNC(=N)N)NC(=O)CNC(=O)[C@H](CCC(=O)O)NC2=O [Peptide A],potency range in inhibiting the target channels,rNaV1.3 channels,micromolar range
same,dose response curves of native and synthetic peptides for inhibiting rNaV1.3 channels,"rNaV1.3 channels; HEK cells, each data point average of 3-5 experiments",overlap completely
same,IC50,"rNaV1.3 channels; text of Example 3, read-out: apparent IC50, NaV1.3 channels",1750 nM
same,IC50,rNaV1.8 channels,2500 nM
same,% inhibition (mean ± S.D) of AP in rDRG & [concentration (μM)],"rat DRG neurons; concentration in brackets in the cell: A 5.00, B 0.70, C 5.00, D 0.75, E 0.83, F 1.00 μM, mean ± S.D",17 ± 10 [5.00] %
same,inhibition of DRG action potentials,"rat DRG neurons; dose higher than the IC50 for NaV1.3: A 5 μM, B 0.7 μM, C 5 μM, D 0.75 μM, E 0.83 μM, F 1 μM",inhibited DRG action potentials
same,% inhibition (mean ± S.D) of hERG at concentration × 10 IC50 for Nav1.3,"hKV11.1 (hERG) channels; each peptide at 10 × its IC50 for Nav1.3, mean ± S.D",2 ± 2%
same,effect on hERG channel currents,"hKV11.1 (hERG) channels; highest dose examined, ten times the IC50 for NaV1.3",no effect
same,effect on the frequency or the amplitude of action potentials in cardiomyocytes,"[1]; A 3.8 μM, B 9 μM, C 5 μM, D 0.75 μM, E 0.83 μM, F 1 μM",no
same,% inhibition (mean ± S.D) of AP frequency in mES-CM & [concentration (μM)],"[1]; concentration in brackets in the cell: A 3.75, B 9.00, C 5.00, D 0.75, E 0.83, F 1.00 μM, mean ± S.D",1 ± 11 [3.75] %
